Measured values from patent US5753516A, “Screening method for ligands of the EBI-1 receptor” (priority 1995, dated 1998).

Sequences of proteins named here, by UniProt entry; tags and fusion partners are left off. Residues count along the entry.
UniProt P32248, 25-378 limits assumed: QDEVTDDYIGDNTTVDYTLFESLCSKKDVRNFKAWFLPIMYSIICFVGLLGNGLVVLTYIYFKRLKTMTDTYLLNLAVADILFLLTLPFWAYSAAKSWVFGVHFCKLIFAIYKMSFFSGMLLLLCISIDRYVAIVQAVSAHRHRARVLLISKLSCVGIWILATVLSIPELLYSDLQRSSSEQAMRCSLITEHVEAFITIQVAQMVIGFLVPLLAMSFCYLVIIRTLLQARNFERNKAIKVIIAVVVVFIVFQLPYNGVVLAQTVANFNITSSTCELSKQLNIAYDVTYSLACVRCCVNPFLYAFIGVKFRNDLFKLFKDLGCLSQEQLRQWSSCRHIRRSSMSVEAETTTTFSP

Tests used:
murine splenocytes = details: Taub et al.; cited from earlier work
NALM 6 cells [1] = test: Binding of ^3 H-labeled δ- and κ-agonists to NALM 6 cells; parameters: species or system human; details: NALM 6, at concentrations s 5 nM
NALM 6 cells [2] = details: Heagy et al., 1992; cited from earlier work
Jurkat cells = test: Binding of ^3 H-labeled δ- and κ-agonists to Jurkat cells; details: dose 50 nM
EBI 1 = EBI 1 (Homo sapiens, UniProt P32248); test: cAMP accumulation in COS cells transfected with EBI 1; details: COS cells expressing lymphocyte receptor

Row | Structure (SMILES) | humoral / antibody response (murine splenocytes) | specific binding, % of total (NALM 6 cells [1]) | [Ca^2+ ]i response (NALM 6 cells [2]) | specific binding, % of total (Jurkat cells) | effect on intracellular cAMP, EBI1 transfectants (EBI 1)
1 | CN(C(=O)Cc1ccccc1)C1CCC2(CCCO2)CC1N1CCCC1 (centres unmarked) | inhibition of antibody responses | 50-80% | stimulates a rapid increase in [Ca^2+ ]i | 50-60% | 
2 | CN(C(=O)Cc1ccc(Cl)c(Cl)c1)C1CCCCC1N1CCCC1 (centres unmarked) |  |  |  |  | but not DAMGO (μ-agonist) or U50,488 (κ-agonist) elicited an elevation in intracellular cAMP content
